# Data: patent US12303498B2, “ALK5 inhibitors as skeletal muscle hypertrophy inducers” (CYTOO, priority 2018, dated 2025)
# Tested on: Human primary myoblasts (healthy donors 3, 1 and 5)
# Test: MyoScreen hypertrophy assay on myotubes from healthy donors
# Format: cell-based
# Conditions: second dose response assay, healthy Donor 3
smiles,measurement,value
c1ccc(-c2n[nH]cc2-c2ccnc3ccccc23)nc1 [LY 364947],% Activity,132%
